Test system: female sexuals (alates)
Test: Planar ovariole area of dealates from fed queenless sub-colonies
Conditions: 1% in 10% sucrose; N=15; alates with workers, no queen

Row | SMILES | planar ovariole area (pixels)
1 | NCCc1ccc(O)cc1 [tyramine] | different from dimethyl tyramine and the sucrose control
2 | CNCCc1ccc(O)cc1 [N-methyl-tyramine (free base), N-methyl-tyramine] | different from dimethyl tyramine and the sucrose control
